Assay: CD spectrophotometry of FITC-labelled peptides
Type: physicochemical

Substance: Transportan [reference compound]
- CD spectral analysis, conformation (NaF Buffer pH 4.5): Weakly helical
- CD spectral analysis, conformation (SDS Micelles pH 4.5): Strong helix
- CD spectral analysis, conformation (SDS Micelles pH 7.2): Strong helix
